{"source": "PubChem BioAssay AID485314", "about": "(National Center for Advancing Translational Sciences (NCATS), 2010)", "note": "This is a selection; strong and weak results do not stand in their true shares. Inconclusive results are not listed. The source made the active and inactive calls. Calls come from the whole dose curve; as a rule, active = well fitted inhibition curve with a large enough effect; inconclusive = small, poorly fitted or top-dose-only effect, or another doubt; inactive = no such curve, though single readings can be large or run the other way. % is set by controls: 0 for no effect and ±100 for the full control effect; potency is the fitted concentration of half-maximal effect."}
{"target": "DNA polymerase beta (Homo sapiens) (UniProt P06746)", "experiment": "qHTS Assay for Inhibitors of DNA Polymerase Beta", "details": "Pol beta primer extension/strand displacement, fluorescence kinetic; series mostly up to 114 µM; activity change, negative = inhibition: at the top concentration", "source_text": "The base excision repair system in human cells is a target for therapeutic modulation of the response to irradiation treatment and DNA-damaging drugs. A key enzyme in this system is the bi-functional DNA polymerase known as DNA polymerase Beta (Pol Beta). The following is a homogeneous kinetic assay to study the primer extension and strand-displacement reaction catalyzed by pol beta.\nA stepwise description of the 1536-well assay is shown in next Table. Three microliters of reagents (buffer in column 3 and 4 as negative control and 10 nM Pol beta in columns 1, 2, and 5-48) was dispensed into 1,536-well black solid-bottomed plate. Compounds (23 nL) were transferred via Kalypsys pin tool equipped with 1536-pin array (10 nL slotted pins, V&P Scientific, San Diego, CA). The plates were incubated for 15 min at room temperature, and 1 uL substrate (50 nM final concentration) were added to start the reaction and immediately read at 0 min read on Viewlux reader. The plate were further incubated for 10 min at room temperature, and then read on Viewlux again. Throughout the screen, reagent bottle and all liquid lines were chilled and made light-tight to minimize reagent degradation. All screening operations were performed on a fully integrated robotic system (Kalypsys, San Diego, CA) containing one RX-130 and two RX-90 anthropomorphic robotic arms (Staubli, Duncan, SC). Library plates were screened starting from the lowest and proceeding to the highest concentration, and a double-dipping step of the highest concentration was required to access higher concentrations of compounds. Vehicle-only plates, with DMSO being pin-transferred to the entire column 5-48 compound area, were inserted uniformly at the beginning and the end of each library in order to monitor for and record any shifts in the background, which can be affected by reagent dispensers or loss in enzyme activity overtime. Screening data were corrected, normalized, and concentration-effect relationships were derived by using publicly-available curve fitting algorithms developed in-house (http://ncgc.nih.gov/pub/openhts). A four parameter Hill equation was fitted to the concentration-response data by minimizing the residual error between the modeled and observed responses."}
{"compound": "c1nnnn1CCn1cnnn1", "activity change, negative = inhibition": "inactive: 8.96%"}
{"compound": "CC(C)C(=O)NC(Sc1ccccc1)C(Cl)(Cl)Cl", "note": "(stereo not drawn)", "activity change, negative = inhibition": "inactive: 26.3%"}
{"compound": "O=P(Nc1nccs1)(c1ccccc1)c1ccccc1", "activity change, negative = inhibition": "inactive: -28.8%"}
{"compound": "Nc1ccc([As](=O)(O)c2ccc([N+](=O)[O-])cc2)cc1", "activity change, negative = inhibition": "inactive: 0.976%"}
{"compound": "C(Cc1nn[nH]n1)Cc1nn[nH]n1", "activity change, negative = inhibition": "inactive: 13.6%"}
{"compound": "O=C(OC1CN2CCC1CC2)c1cccc(Cl)c1", "note": "(stereo not drawn)", "activity change, negative = inhibition": "inactive: -17.2%"}
{"compound": "O=[N+]([O-])c1ccc(O)c(/C=N/Nc2ccc([N+](=O)[O-])cc2[N+](=O)[O-])c1", "activity change, negative = inhibition": "inactive: 20%"}
{"compound": "CC(=O)NC(SC(=S)N(C)C)C(Cl)(Cl)Cl", "note": "(stereo not drawn)", "activity change, negative = inhibition": "inactive: -2.39%"}
{"compound": "O=[N+]([O-])c1ncn(CCn2cnc([N+](=O)[O-])n2)n1", "activity change, negative = inhibition": "inactive: 11.6%"}
{"compound": "O=[As](O)(c1ccccc1)c1ccc(O)cc1", "activity change, negative = inhibition": "inactive: -15.4%"}
{"compound": "O=P(Nc1nc2ccccc2s1)(c1ccccc1)c1ccccc1", "activity change, negative = inhibition": "inactive: 21.7%"}
{"compound": "C[C@H]1OP(=O)(Oc2ccccc2)[C@H](O)[C@H](O)[C@H]1N=[N+]=[N-]", "note": "(stereo partly drawn)", "activity change, negative = inhibition": "inactive: 1.45%"}
{"compound": "O=P(Nc1ccccn1)(c1ccc(Br)cc1)c1ccc(Br)cc1", "activity change, negative = inhibition": "inactive: -13.1%"}
{"compound": "CN(C)C1(CNC(=O)c2ccc(Cl)c(S(N)(=O)=O)c2)CCCCC1", "activity change, negative = inhibition": "inactive: 10.2%"}
{"compound": "Cc1ccccc1OP(=O)(Nc1ccccn1)Oc1ccccc1C", "activity change, negative = inhibition": "inactive: 11.2%"}
{"compound": "CN(C)C(=O)Oc1noc2ccccc12", "activity change, negative = inhibition": "inactive: 8.63%"}
{"compound": "O=c1c2cc([N+](=O)[O-])ccc2[nH]c2c([N+](=O)[O-])cc([N+](=O)[O-])cc12", "activity change, negative = inhibition": "inactive: -3.84%"}
{"compound": "COC(=O)c1cc2c(s1)N=C(c1ccccc1)N(C)P2(=O)N1CCOCC1", "note": "(stereo not drawn)", "activity change, negative = inhibition": "inactive: 33.5%"}
{"compound": "CC(=O)NC(SC(=S)N(CC(C)C)CC(C)C)C(Cl)(Cl)Cl", "note": "(stereo not drawn)", "activity change, negative = inhibition": "inactive: 16.6%"}
{"compound": "Cc1ccc(OP(=O)(Nc2ccccn2)Oc2ccc(C)cc2)cc1", "activity change, negative = inhibition": "inactive: -2.94%"}
{"compound": "CN(C(=O)Cc1ccc(Cl)c(Cl)c1)[C@@H]1CCCC[C@@H]1N1CCCC1", "activity change, negative = inhibition": "inactive: 20.1% [at 57.1 µM]"}
{"compound": "O=C(OC1CN2CCC1CC2)c1ccccc1", "note": "(stereo not drawn)", "activity change, negative = inhibition": "inactive: 18.2%"}
{"compound": "CCC(=O)N1C2C3N(C(=O)CC)C1C1N(C(=O)CC)C(C(N1C(=O)CC)N3C(=O)CC)N2C(=O)CC", "activity change, negative = inhibition": "inactive: 16.2%"}
{"compound": "CCNC(=S)/N=C(\\N)N[N+](=O)[O-]", "activity change, negative = inhibition": "inactive: 52.5%"}
{"compound": "O=C(NC1CCS(=O)(=O)C1)NP(=S)(Oc1ccccc1)Oc1ccccc1", "note": "(stereo not drawn)", "activity change, negative = inhibition": "inactive: 23%"}
{"compound": "c1ccc(-c2nn[nH]n2)c(-c2nn[nH]n2)c1", "activity change, negative = inhibition": "inactive: 2.61%"}
{"compound": "Cc1ccc(NP(=O)(Oc2cccc(C)c2)Oc2cccc(C)c2)nc1", "activity change, negative = inhibition": "inactive: 3.61%"}
{"compound": "CCOC(=O)NC(Sc1ccccc1)C(Cl)(Cl)Cl", "note": "(stereo not drawn)", "activity change, negative = inhibition": "inactive: 17.8%"}
{"compound": "CC(=O)Nc1ccc([As](=O)(O)O)c(O)c1", "activity change, negative = inhibition": "inactive: 9.14%"}
{"compound": "CC(=O)c1ccc(N2CC2c2ccncc2)cc1", "note": "(stereo not drawn)", "activity change, negative = inhibition": "inactive: 1.87%"}
{"compound": "C[C@@H]1C=CCP(=O)(Oc2ccccc2)O1", "note": "(stereo partly drawn)", "activity change, negative = inhibition": "inactive: -5.34%"}
{"compound": "C[C@H]1OP(=O)(Oc2ccccc2)C[C@@H]2O[C@@H]21", "note": "(stereo partly drawn)", "activity change, negative = inhibition": "inactive: 1.89%"}
{"compound": "CC(C)(C)C(=O)NC(Sc1ccccc1)C(Cl)(Cl)Cl", "note": "(stereo not drawn)", "Potency": "active: 79.4 µM"}
{"compound": "O=P1(Nc2nc3ccc(Cl)cc3s2)COc2ccccc2O1", "note": "(stereo not drawn)", "activity change, negative = inhibition": "inactive: -25.2%"}
{"compound": "CCOc1ccc(C2=NCC(CBr)S2)cc1", "note": "(stereo not drawn)", "activity change, negative = inhibition": "inactive: -0.739%"}
{"compound": "CC(C)CC(=O)NC(Sc1ccc(Cl)cc1)C(Cl)(Cl)Cl", "note": "(stereo not drawn)", "activity change, negative = inhibition": "inactive: 26.7%"}
{"compound": "Nc1cc(N)c2nonc2c1[N+](=O)[O-]", "activity change, negative = inhibition": "inactive: -29.9%"}
{"compound": "Oc1ccccc1CNc1ccccn1", "activity change, negative = inhibition": "inactive: -24.7%"}
{"compound": "Cc1c2non([O-])c-2c(C)[n+](=O)[n+]1[O-]", "activity change, negative = inhibition": "inactive: 33.1%"}
{"compound": "O=C(NC(Sc1ccncn1)C(Cl)(Cl)Cl)c1ccccc1", "note": "(stereo not drawn)", "activity change, negative = inhibition": "inactive: 61.5%"}
{"compound": "COc1ccccc1OP(=O)(Nc1ccc(C)cn1)Oc1ccccc1OC", "activity change, negative = inhibition": "inactive: 4.71%"}
{"compound": "Cc1ccc(OP(=O)(Nc2nccs2)Oc2ccc(C)cc2)cc1", "activity change, negative = inhibition": "inactive: -18.7%"}
{"compound": "Clc1ccc(Cl)c(NC2=NCC(CBr)S2)c1", "note": "(stereo not drawn)", "activity change, negative = inhibition": "inactive: 2.54%"}
{"compound": "CN1CCCC(OC(=O)C(c2ccccc2)c2ccccc2)C1", "note": "(stereo not drawn)", "activity change, negative = inhibition": "inactive: -0.222%"}
{"compound": "NC(=O)c1cc([N+](=O)[O-])cc([N+](=O)[O-])c1N", "activity change, negative = inhibition": "inactive: 14%"}
{"compound": "Cc1ccc(N/C(=N/P(=O)(N2CCOCC2)N2CCOCC2)N2CCOCC2)cc1", "activity change, negative = inhibition": "inactive: 89.4%"}
{"compound": "CCN(N=Nc1nonc1N)c1nonc1N", "activity change, negative = inhibition": "inactive: -6.42%"}
{"compound": "Nc1cccc2ccc([As](=O)(O)O)cc12", "Potency": "active: 22.4 µM"}
{"compound": "CCOP(=O)(Nc1ccccc1)OCC", "Potency": "inactive"}
{"compound": "Cc1cc(SC(NC(=O)c2ccc(F)cc2)C(Cl)(Cl)Cl)ncn1", "note": "(stereo not drawn)", "activity change, negative = inhibition": "inactive: 15.8%"}
{"compound": "CN(C(=O)Cc1ccc(Cl)c(Cl)c1)[C@H]1CCCC[C@@H]1N1CCCC1", "Potency": "inactive"}
{"compound": "O=C(O)c1ccccc1[As](=O)(O)O", "activity change, negative = inhibition": "inactive: -11.8%"}
{"compound": "CC(=O)Nc1ccc([As](=O)(O)O)cc1", "activity change, negative = inhibition": "inactive: -16.5%"}
{"compound": "O=P(Nc1nc2ccc(Cl)cc2s1)(c1ccccc1)c1ccccc1", "activity change, negative = inhibition": "inactive: 7.26%"}
{"compound": "O=[N+]([O-])c1cccc(NC2=NCC(CBr)S2)c1", "note": "(stereo not drawn)", "activity change, negative = inhibition": "inactive: 2.4%"}
{"compound": "O=C(O)CNc1ccc([As](=O)(O)O)cc1", "activity change, negative = inhibition": "inactive: 7.18%"}
{"compound": "CC(C)(C)C(=O)NC(Sc1ccncn1)C(Cl)(Cl)Cl", "note": "(stereo not drawn)", "activity change, negative = inhibition": "inactive: 0.0044%"}
{"compound": "O=[N+]([O-])c1ncn(CCn2ncnc2[N+](=O)[O-])n1", "activity change, negative = inhibition": "inactive: 35%"}
{"compound": "O=C(Nc1cc([As](=O)(O)O)ccc1O)c1ccccc1", "activity change, negative = inhibition": "inactive: -1.58%"}
{"compound": "CC(C)=N/N=C(\\N)N[N+](=O)[O-]", "activity change, negative = inhibition": "inactive: -18.7%"}
{"compound": "CN(C)C(=O)OCCc1n(C)cc[n+]1C", "activity change, negative = inhibition": "inactive: -8.5%"}
{"compound": "CC1CCN(C(=O)Oc2c(Cl)cc(Cl)c3cccnc23)CC1", "activity change, negative = inhibition": "inactive: -0.7%"}
{"compound": "Nc1ccc([As](=O)(O)c2ccc(N)cc2)cc1", "activity change, negative = inhibition": "inactive: 7.91%"}
{"compound": "CCN(/C(=N/P(=O)(N1CCOCC1)N1CCOCC1)N1CCOCC1)c1ccc(OC)cc1", "activity change, negative = inhibition": "inactive: -0.129%"}
{"compound": "O=[N+]([O-])c1cccc2n[nH]nc12", "activity change, negative = inhibition": "inactive: 25.3%"}
{"compound": "CC(=O)N1C2C3N(C(C)=O)C1C1N(C(C)=O)C(C(N1C(C)=O)N3C(C)=O)N2C(C)=O", "activity change, negative = inhibition": "inactive: 31.7%"}
{"compound": "Cc1ccc(NP(=O)(Oc2ccccc2)Oc2ccccc2)nc1", "activity change, negative = inhibition": "inactive: 14.3%"}
{"compound": "CCc1nc2c(n1)c1c(non1O)c1c2no[n+]1[O-]", "activity change, negative = inhibition": "inactive: 0.0982%"}
